Laboratory results taken from publication PMC7997411, “Discovery and Optimization of Selective Inhibitors of Meprin α (Part II)” (Pharmaceuticals, 2021).

Chains of the proteins cited; added tags and fusions are not shown. Residues count along the entry.
UniProt O14672, 214-748 limits assumed: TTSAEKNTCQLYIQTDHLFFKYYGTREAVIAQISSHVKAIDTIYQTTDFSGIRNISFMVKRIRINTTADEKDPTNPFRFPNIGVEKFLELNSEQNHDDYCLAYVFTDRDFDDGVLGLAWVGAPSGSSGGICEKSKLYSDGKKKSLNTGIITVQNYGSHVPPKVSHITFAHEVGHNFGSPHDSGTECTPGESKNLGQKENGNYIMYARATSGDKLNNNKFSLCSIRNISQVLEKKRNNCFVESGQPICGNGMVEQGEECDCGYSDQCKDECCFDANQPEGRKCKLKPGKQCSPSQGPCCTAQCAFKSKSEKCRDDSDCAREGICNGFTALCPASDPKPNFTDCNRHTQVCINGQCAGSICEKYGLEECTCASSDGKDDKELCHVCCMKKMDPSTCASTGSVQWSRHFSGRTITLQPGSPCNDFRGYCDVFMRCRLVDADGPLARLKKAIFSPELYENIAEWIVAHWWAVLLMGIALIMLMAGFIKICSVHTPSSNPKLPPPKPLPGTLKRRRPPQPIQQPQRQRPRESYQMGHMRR

Molecular target: ADAM10 (Homo sapiens, UniProt O14672)
Experiment: ADAM10 assay
Type: biochemical
Procedure: All common chemicals were purchased from Sigma.
Both assays followed the same general protocol. […] After 30 min incubation at RT, the reactions were started by addition of 2.5 µL of 2× solutions of substrate (R&D Systems cat#: ES010, Mca-KPLGL-Dpa-AR-NH2, 20 µM). […] All compounds were tested in 10-point, 1:3 serial dilutions dose-response format starting with highest concentration of 100 µM. IC50 values were determined using non-linear regression analysis using the GraphPad Prism 8.0 suite of programs.

IC50: 2.2 µM
Compound: CCCCC[C@H](CC(=O)NO)C(=O)N[C@H](C(=O)N1CCC[C@H]1CO)C(C)C [Actinonin, actinonin, reference compound]
